Test results taken from US12054553B2, “Immunotherapeutic tumor treatment method” (Nektar Therapeutics, priority 2017, dated 2024).

Columns and labels:
[1] = test system: B16F10 mouse melanoma tumors; test: Immune cells in tumor microenvironment by flow cytometry, subcutaneous B16F10 melanoma; type: in vivo, mice
[2] = test system: STAT5 phosphorylation in lymphocytes; test: STAT5 phosphorylation in lymphocytes by flow cytometry after administration in mice; type: in vivo
Description: Conventional approaches, such as those involving radiolabeling a compound, administering it in vivo, and determining its clearance, may be used to determine whether a compound proposed to be a long-acting IL-2Rβ biased agonist is “long-acting”. For the purposes herein, the long-acting nature of an IL-2Rβ biased agonist is typically determined using flow cytometry to measure STAT5 phosphorylation in lymphocytes at various time points after administration of the agonist to be evaluated in mice. As a reference, the signal is lost by around 24 hours with IL-2, but is sustained fora period greater than that for a long-acting IL-2Rβ-biased agonist.

(2,7-(bis-methoxyPEG10kD-carboxyamide)(9H-fluorene-9-yl)methyl N-carbamate)4-6interleukin-2 [RSLAIL-2]
activated natural killer (NK) cells ([1]; 5 and 7 days after treatment initiation): increased
CD4 cell percentages of tumor-infiltrating lymphocytes ([1]; day 5, relative to vehicle): diminished
CD4 cell percentages of tumor-infiltrating lymphocytes ([1]; day 10, compared with vehicle and aldesleukin): fewer CD4 cell percentages
total and memory CD8 cells as percentage of tumor-infiltrating lymphocytes ([1]; relative to vehicle): significant (P<0.05) and sustained total and memory CD8 T-cell stimulation
percentage of Tregs (FoxP3+ subset of CD4 cells) in tumor ([1]; single dose RSLAIL-2 or 5 doses aldesleukin): reduced percentage of Tregs at every time point
duration of STAT5 phosphorylation signal [2]: sustained over several days
